Measured values from PubChem BioAssay AID1487 (National Center for Advancing Translational Sciences (NCATS), 2009).
Only a part is listed here, and it is no random draw. Inconclusive results are not listed. Calls of active or inactive are those of the source. Calls come from the whole dose curve; as a rule, active = well fitted inhibition curve with a large enough effect in the signal ratio, with a control signal flat (not every such curve was filed as active); inconclusive = small, poorly fitted or top-dose-only effect, or effect the other way, or a change in a side signal; inactive = flat fitted curve, though single readings scatter; the % refers to the signal ratio.

experiment: qHTS Assay for Modulators of Lamin A Splicing; details: HeLa LMNA splicing GFP/RFP minigene ratio, 48 h; at 46 µM (top of the series) unless noted
% is set by controls: 0 for no effect and ±100 for the full control effect.

Row | SMILES | ratio change, negative = inhibition
1 | CC(C)c1ccc(NC2CCN(C(=O)OC(C)(C)C)CC2)cc1 | inactive: 4.53%
2 | CCCCOc1ccccc1C(=O)NCC1(N2CCOCC2)CCCCC1 | inactive: 13.1%
3 | O=C(NCC1(N2CCOCC2)CCCCC1)c1ccccc1Br | inactive: 12.5%
4 | N#CC1(Nc2ccccc2)CCN(CCc2ccccc2)CC1 | inactive: 3.28% [at 46.1 µM]
5 | CCOc1ccc(C(=O)NCC2(N3CCOCC3)CCCCC2)cc1 | inactive: 7.91%
6 | CCCOc1cccc(C(=O)NCC2(N3CCOCC3)CCCCC2)c1 | inactive: 15.7%
7 | O=C(NCC1(N2CCOCC2)CCCCC1)c1cc(=O)[nH]c2ccccc12 | inactive: 6.54% [at 46.1 µM]
8 | CN1CCN(CCOC(=O)C(O)(c2ccccc2)c2ccccc2)CC1 | inactive: 4.65% [at 46.1 µM]
9 | COc1ccc(NC2CCN(C(=O)OC(C)(C)C)CC2)cc1 | inactive: -6.72%
10 | COc1ccccc1C(=O)NCC1(N2CCOCC2)CCCCC1 | inactive: 18.1%
11 | COc1ccc(NC2CCN(CCc3ccccc3)CC2)c(OC)c1 | inactive: -3.82% [at 46.1 µM]
12 | O=C(NCC1(N2CCOCC2)CCCCC1)c1cc2ccccc2o1 | inactive: 2.05% [at 46.1 µM]
13 | O=C(OC1CN2CCC1CC2)C1c2ccccc2Oc2ccccc21 (centres undefined) | inactive: 14.3% [at 46.1 µM]
14 | CCOc1ncccc1C(=O)NCC1(N2CCOCC2)CCCCC1 | inactive: -1.29% [at 46.1 µM]
15 | CC(C)(C)OC(=O)N1CCC(Nc2ccccc2)CC1 | inactive: 13.7%
16 | COc1cc(C(=O)NCC2(N3CCOCC3)CCCCC2)cc(OC)c1OC | inactive: -12.2%
17 | CCC(CO)(C(=O)OC1CN2CCC1CC2)c1ccccc1 (centres undefined) | inactive: 5.92% [at 46.1 µM]
18 | CN(C)C1(CNC(=O)c2ccc(C(C)(C)C)cc2)CCCCC1 | inactive: 9.22%
19 | Fc1ccccc1NC1CCN(Cc2ccccc2)CC1 | inactive: 2.7% [at 46.1 µM]
20 | CCN1CCC(Nc2cccc(F)c2)CC1 | inactive: 3.75% [at 46.1 µM]
21 | Cc1ccccc1C(=O)NCC1(N(C)C)CCCCC1 | inactive: 18.4%
22 | CC(C)(C)c1ccc(C(=O)NCC2(N3CCOCC3)CCCCC2)cc1 | inactive: 10.5%
23 | CN(C)c1ccc(C(=O)NCC2(N3CCCCC3)CCCCC2)cc1 | inactive: 3.74% [at 9.22 µM]
24 | N#Cc1ccc(C(=O)NCC2(N3CCCCC3)CCCCC2)cc1 | inactive: 5.47%
25 | O=C(NCC1(N2CCOCC2)CCCCC1)c1ccc([N+](=O)[O-])cc1 | inactive: 6.22%
26 | c1ccc(CN2CCC(Nc3ccccc3)CC2)cc1 | inactive: -5.32% [at 46.1 µM]
27 | O=C(NCC1(N2CCOCC2)CCCCC1)c1ccccc1 | inactive: -0.457%
28 | N/C(=N\O)c1c(N)no[n+]1[O-] | inactive: 5.93% [at 46.1 µM]
29 | O=C(OC1CN2CCC1CC2)C1c2ccccc2C=Cc2ccccc21 (centres undefined) | inactive: 7.85% [at 46.1 µM]
